The entries are a selection whose mix differs from that of the whole data set. Some of these compounds have results that are not shown, active ones among them. The source made the active and inactive calls. Rule as the data show it: active = inhibition above about 9.5%; inactive = the rest.

By UniProt entry, the sequences of proteins in these tests, tags left out.
UniProt P19174, whole entry: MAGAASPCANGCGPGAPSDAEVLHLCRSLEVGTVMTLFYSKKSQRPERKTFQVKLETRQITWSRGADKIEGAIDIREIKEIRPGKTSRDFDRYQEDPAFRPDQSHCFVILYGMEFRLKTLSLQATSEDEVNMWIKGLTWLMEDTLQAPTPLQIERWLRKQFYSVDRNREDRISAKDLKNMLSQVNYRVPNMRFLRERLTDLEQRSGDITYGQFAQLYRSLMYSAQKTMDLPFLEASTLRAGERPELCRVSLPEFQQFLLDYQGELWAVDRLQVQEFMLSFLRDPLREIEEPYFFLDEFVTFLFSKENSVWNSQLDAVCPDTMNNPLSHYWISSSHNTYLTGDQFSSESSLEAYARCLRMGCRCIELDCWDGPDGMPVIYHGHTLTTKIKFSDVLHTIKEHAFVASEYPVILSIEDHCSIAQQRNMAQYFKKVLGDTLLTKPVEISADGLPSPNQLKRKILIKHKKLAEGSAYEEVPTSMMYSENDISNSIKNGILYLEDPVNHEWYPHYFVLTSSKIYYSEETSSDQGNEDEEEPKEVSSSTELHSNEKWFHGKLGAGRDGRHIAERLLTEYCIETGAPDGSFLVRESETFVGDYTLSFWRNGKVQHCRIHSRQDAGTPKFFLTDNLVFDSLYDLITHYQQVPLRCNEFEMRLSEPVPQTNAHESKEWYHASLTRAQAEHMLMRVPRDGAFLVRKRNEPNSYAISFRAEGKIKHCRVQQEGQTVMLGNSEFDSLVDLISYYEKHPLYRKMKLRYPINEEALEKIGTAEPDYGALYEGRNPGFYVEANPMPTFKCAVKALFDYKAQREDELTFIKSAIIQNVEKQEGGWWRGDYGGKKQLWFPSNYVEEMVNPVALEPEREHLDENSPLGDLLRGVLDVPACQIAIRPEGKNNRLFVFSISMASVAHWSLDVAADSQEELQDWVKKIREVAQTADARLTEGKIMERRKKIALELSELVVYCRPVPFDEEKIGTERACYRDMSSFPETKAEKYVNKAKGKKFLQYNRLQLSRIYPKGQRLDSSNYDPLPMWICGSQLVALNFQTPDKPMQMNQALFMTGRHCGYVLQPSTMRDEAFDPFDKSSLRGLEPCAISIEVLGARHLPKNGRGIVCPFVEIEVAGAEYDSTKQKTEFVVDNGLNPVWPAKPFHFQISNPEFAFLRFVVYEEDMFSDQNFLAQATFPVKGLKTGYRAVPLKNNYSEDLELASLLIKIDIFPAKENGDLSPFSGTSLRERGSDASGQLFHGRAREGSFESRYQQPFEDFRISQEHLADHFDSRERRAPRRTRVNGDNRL

The results in this text go back to PubChem BioAssay AID720700 (The Scripps Research Institute Molecular Screening Center, 2013).

The test has as its target 1-phosphatidylinositol 4,5-bisphosphate phosphodiesterase gamma-1 (Homo sapiens) (UniProt P19174). Put plainly: blockers of human PLCG1 activity – biochemical, fluorescence, purified enzyme, primary screen (AID 720700). To be noted: purified PLC-gamma1, fluorogenic substrate, at 12.2 µM, active compounds read high.
For orientation: inhibition means the change of the read-out against control, counted positive when it falls. Take `COc1cc(C(=O)NCC2(N(C)C)CCCCC2)c([N+](=O)[O-])cc1OC`: the inhibition is inactive: -1.52%.

Turning to `CN(C)C1(CNC(=O)c2ccc(Br)cc2)CCCCC1`, the inhibition was inactive: -1.75%. As for `O=C(NCC1(N2CCCCC2)CCCCC1)c1cccc(Cl)c1`, the figure is inactive: 0.12%; as for `COc1ccc(Cl)cc1C(=O)NCC1(N(C)C)CCCCC1`, inactive: 5.37%. As for `COc1cccc(C(=O)NCC2(N3CCCCC3)CCCCC2)c1`, the figure is inactive: 0.07%. As for `O=C(OC1CN2CCC1CC2)C(CO)(c1ccccc1)c1ccccc1` (stereo not given), the figure is inactive: 1.55%.

Take `O=C(OCCN1CCCC1)C(O)(c1ccccc1)c1ccccc1`: the inhibition is inactive: -0.95%. For the compound `CC(C)Oc1ccc(C(=O)NCC2(N(C)C)CCCCC2)cc1`, the inhibition was inactive: -2.54%. The result for `CN(C)c1cccc(C(=O)NCC2(N(C)C)CCCCC2)c1` reads inactive: -69.8%. For `C=C(C)C#CC(O)(C(=O)OC1CCN(C)CC1)c1ccccc1` (stereo not given), the inhibition was inactive: 0.23%. As for `COc1ccc(Br)c(C(=O)NCC2(N3CCCCC3)CCCCC2)c1`, the figure is inactive: -0.12%; as for `CN1[C@@H]2CC[C@H]1CC(OC(=O)C(O)(c1ccccc1)c1ccccc1)C2` (stereo not given in full), inactive: -0.76%. `O=C(NCC1(N2CCCCC2)CCCCC1)c1cc([N+](=O)[O-])ccc1Cl`: the inhibition is inactive: -0.56%. The result for `Cc1ccc(C(=O)NCC2(N3CCCCC3)CCCCC2)cc1` reads inactive: 0.3%. The result for `COc1cc(SC)ccc1C(=O)NCC1(N(C)C)CCCCC1` reads inactive: 0.78%.

Consider `CCN(CC)CC(C)C(C)OC(=O)C(O)(c1ccccc1)c1ccccc1` (stereo not given), for which the inhibition was inactive: 0.91%.

As for `CC(C)N1C(=O)CC2(CCN(CCOC(=O)C(O)(c3ccccc3)c3ccccc3)CC2)C1=O`, the inhibition is inactive: -0.66%. The result for `CN(C)C1CCCC1OC(=O)C(O)(c1ccccc1)c1ccccc1` (stereo not given) reads inactive: 1.92%; that for `CN(C)c1ccc(C(=O)NCC2(N(C)C)CCCCC2)cc1`, inactive: 1.39%; that for `Cc1ccccc1C(=O)NCC1(N2CCCCC2)CCCCC1`, inactive: 2.38%. As for `COc1ccc(C(=O)NCC2(N(C)C)CCCCC2)cc1`, the figure is inactive: 0.33%; as for `O=C(NCC1(N2CCCCC2)CCCCC1)c1cccc(Br)c1`, inactive: 1.32%; as for `Cc1cc(C(=O)NCC2(N3CCCCC3)CCCCC2)ccc1[N+](=O)[O-]`, inactive: 1.83%.

Take `O=C(NCC1(N2CCCCC2)CCCCC1)c1cc(F)c(F)cc1Cl`: the inhibition is inactive: 0.76%.

Consider `C=CCN1CCN(CCOC(=O)C(O)(c2ccccc2)c2ccccc2)CC1`, for which the inhibition was inactive: 5.03%.
